pKi: −log10 of the molar value.
Experiments:
[1] = target: elastase (UniProt P08246); experiment: enzyme inhibition with chromogenic substrate (Dixon plot); enzyme (FXIIa 10 nM, plasma kallikrein 80 nM, trypsin 800 nM, elastase 400 nM) incubated with 0.5, 1 and 2 uM native poecistasin in 60 uL of 50 mM Tris buffer pH 7.4 for 5 min, then 0.2 mM chromogenic substrate; absorbance at 405 nm for 10 min; Ki from Dixon plot
[2] = target: trypsin; experiment: as above

Protein sequences, listed by entry. Tags and fused reporters are not part of them. Lines headed by an entry give the natural chain unless they say otherwise; changes in a name come on top.
UniProt P08246: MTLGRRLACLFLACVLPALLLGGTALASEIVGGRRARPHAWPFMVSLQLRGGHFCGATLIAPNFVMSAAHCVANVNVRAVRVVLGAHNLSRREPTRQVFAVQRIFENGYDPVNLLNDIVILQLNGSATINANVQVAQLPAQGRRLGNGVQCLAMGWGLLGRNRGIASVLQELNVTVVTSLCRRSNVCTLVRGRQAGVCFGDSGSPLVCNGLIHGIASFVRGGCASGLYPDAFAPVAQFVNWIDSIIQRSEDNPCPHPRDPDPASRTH

Substance: native poecistasin (natural protein)
- pKi [1]: 6.26
- pKi [2]: 8.03

Reference: publication PMC6265900
